Measurements reported in PubChem BioAssay AID612 (The Scripps Research Institute Molecular Screening Center, 2007).
This is a selection; strong and weak results do not stand in their true shares. Some of these compounds have results that are not shown, active ones among them. Calls of active or inactive are those of the source.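 Rule for the calls: active = inhibition above the mean of all tested compounds plus 3 SD (cut at about 43% in these data); inactive = the rest.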

The chains behind the UniProt entries cited, without tags or fusion partners.
UniProt P08908, whole entry: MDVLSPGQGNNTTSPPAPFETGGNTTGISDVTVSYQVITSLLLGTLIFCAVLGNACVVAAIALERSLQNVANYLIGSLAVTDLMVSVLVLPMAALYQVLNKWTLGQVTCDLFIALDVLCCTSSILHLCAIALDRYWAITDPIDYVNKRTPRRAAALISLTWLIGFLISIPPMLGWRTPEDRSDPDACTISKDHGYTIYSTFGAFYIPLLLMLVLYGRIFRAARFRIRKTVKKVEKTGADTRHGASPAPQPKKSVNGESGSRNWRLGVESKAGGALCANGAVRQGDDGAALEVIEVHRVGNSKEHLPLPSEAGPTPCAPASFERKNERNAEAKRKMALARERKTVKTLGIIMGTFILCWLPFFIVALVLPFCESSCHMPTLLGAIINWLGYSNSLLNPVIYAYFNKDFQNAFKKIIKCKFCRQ

Target: 5-hydroxytryptamine receptor 1A (Homo sapiens) (UniProt P08908)
Test: blockade of serotonin HTR1A receptor – cell-based, CHO, Ga15 NFAT-bla reporter, primary screen (AID 612);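 note: receptor stimulated by 5-CT agonist at 100 nM near EC80; beta-lactamase reporter measured by ratiometric fluorescence of a cleavable substrate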
Settings: CHO 5-HT1a Ga15 NFAT-bla reporter, antagonist mode; at 10 µM; stronger effect = higher value

SMILES	inhibition
O=C(OC1CN2CCC1CC2)C(CO)(c1ccccc1)c1ccccc1 (configuration not stated)	inactive: -1.9%
CN(C)c1cccc(C(=O)NCC2(N(C)C)CCCCC2)c1	inactive: -2%
